The target in the assay is TDO (Homo sapiens, UniProt P48775). Put plainly: TDO Cellular Assay in Frozen SW48 Cells. The conditions noted are these: read-out: SW48 IC50, 300 uM L-tryptophan, about 48 hours, fluorescence readout. Format: cell-based.

Chains of the proteins cited; added tags and fusions are not shown.
UniProt P48775, whole entry: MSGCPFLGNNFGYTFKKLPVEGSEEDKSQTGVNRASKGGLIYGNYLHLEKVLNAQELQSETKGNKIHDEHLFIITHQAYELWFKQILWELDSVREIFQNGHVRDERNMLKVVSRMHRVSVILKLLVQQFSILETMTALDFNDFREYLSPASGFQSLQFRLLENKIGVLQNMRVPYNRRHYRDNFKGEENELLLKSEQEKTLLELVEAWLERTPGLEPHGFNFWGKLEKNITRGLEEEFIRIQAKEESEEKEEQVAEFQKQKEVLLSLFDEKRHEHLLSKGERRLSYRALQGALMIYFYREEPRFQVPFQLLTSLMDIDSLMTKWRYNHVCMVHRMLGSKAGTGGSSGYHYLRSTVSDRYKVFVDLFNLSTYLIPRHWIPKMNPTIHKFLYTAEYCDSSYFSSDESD

The results in this text go back to US11319283B2, “Substituted cyclobutylbenzene compounds as indoleamine 2,3-dioxygenase (IDO) inhibitors” (MERCK SHARP & DOHME CORP., priority 2017, dated 2022).

For orientation: IC50 means the concentration that inhibits the measured activity by half.

SMILES strings stand for the structures.

Regarding `O=C(Nc1ccc(C2(C(=O)NC3Cc4ccc(F)cc43)CCC2)cc1)c1cccc(Cl)c1` (stereo not shown), the IC50 was at least 10 µM.
